Test results as given in ChEMBL document CHEMBL5244233, “Overview of cannabidiol (CBD) and its analogues: Structures, biological activities, and neuroprotective mechanisms in epilepsy and Alzheimer's disease” (Eur J Med Chem, 2020).

By UniProt entry, the sequences of proteins in these tests, tags left out.
UniProt P20272, whole entry: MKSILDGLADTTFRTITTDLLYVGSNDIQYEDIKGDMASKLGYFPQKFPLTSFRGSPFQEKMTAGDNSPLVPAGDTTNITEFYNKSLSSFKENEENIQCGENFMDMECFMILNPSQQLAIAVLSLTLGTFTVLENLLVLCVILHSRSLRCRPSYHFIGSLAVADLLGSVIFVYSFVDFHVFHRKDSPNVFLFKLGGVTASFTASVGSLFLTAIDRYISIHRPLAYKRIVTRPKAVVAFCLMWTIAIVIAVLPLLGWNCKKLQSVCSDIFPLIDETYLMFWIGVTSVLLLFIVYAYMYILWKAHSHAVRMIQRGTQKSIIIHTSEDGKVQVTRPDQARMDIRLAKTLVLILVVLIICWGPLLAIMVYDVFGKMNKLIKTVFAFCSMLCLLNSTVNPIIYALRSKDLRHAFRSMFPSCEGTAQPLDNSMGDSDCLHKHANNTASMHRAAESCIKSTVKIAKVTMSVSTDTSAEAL

Target: Cannabinoid receptor 1 (Rattus norvegicus, UniProt P20272)
Test: Displacement of [3H]CP55940 from rat brain membrane CB1 receptor assessed as inhibition constant incubated for 90 mins
Type: cell membranes

C=C(C)[C@@H]1CCC(C)=C[C@H]1c1c(O)cc(CCCCC)cc1O [CANNABIDIOL]
Ki: > 10 µM
